Experimental data taken from patent US20220153745A1, “DISUBSTITUTED BENZOTHIENYL-PYRROLOTRIAZINES AND THEIR USE AS FGFR KINASE INHIBITORS” (Bayer Intellectual Property GmbH, priority 2011, published 2022).
Structures can show the parent of a compound that is named as a salt.

By UniProt entry, the sequences of proteins in these tests, tags left out. Residues count along the entry.
UniProt P22607, 397-806: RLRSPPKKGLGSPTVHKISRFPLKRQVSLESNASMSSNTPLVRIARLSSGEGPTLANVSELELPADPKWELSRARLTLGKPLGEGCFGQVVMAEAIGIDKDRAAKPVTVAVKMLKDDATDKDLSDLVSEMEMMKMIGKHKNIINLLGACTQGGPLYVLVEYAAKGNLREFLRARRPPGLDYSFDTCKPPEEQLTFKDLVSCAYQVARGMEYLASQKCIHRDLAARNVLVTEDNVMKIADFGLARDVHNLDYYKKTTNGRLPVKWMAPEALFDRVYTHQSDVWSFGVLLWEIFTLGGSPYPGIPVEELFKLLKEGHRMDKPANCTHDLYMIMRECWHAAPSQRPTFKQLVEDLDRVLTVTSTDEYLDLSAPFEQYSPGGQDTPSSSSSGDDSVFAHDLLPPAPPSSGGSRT
UniProt P11362, 402-822: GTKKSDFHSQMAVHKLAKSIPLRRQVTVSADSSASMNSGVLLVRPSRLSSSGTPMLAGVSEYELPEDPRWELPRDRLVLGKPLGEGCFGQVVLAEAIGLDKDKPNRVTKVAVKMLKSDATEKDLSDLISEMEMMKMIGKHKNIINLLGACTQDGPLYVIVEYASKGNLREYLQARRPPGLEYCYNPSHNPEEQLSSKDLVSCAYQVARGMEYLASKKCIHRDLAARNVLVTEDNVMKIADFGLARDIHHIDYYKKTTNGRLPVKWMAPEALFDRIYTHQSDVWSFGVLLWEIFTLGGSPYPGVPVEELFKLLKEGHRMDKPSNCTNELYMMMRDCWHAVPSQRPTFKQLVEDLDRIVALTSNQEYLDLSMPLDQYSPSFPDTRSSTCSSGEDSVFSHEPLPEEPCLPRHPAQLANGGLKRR

What was measured:
FGFR-3 = molecular target: T1, FGFR-3 (Homo sapiens, UniProt P22607); experiment: FGFR-3 kinase assay (TR-FRET); format: biochemical; details: 10 μM ATP, 15 min pre-incubation; compounds of the invention (Table 2A)
T1 construct: human FGFR-3 from amino acids R397 to T806 as in NCBI/Protein entry NP_000133.1; purchased Proqinase 1068-0000-1; host or cells: SF9 insect cells (baculovirus)

FGFR-1 = molecular target: T2, FGFR-1 (Homo sapiens, UniProt P11362); experiment: FGFR-1 high ATP kinase assay (TR-FRET); format: biochemical; details: 2 mM ATP, 15 min pre-incubation; compounds of the invention (Table 1A)
T2 construct: human FGFR-1 from amino acids G400 to R800 as in GenBank entry NM_015850; purchased Proqinase 0101-0000-1; host or cells: SF9 insect cells (baculovirus)

CCN(CC)Cc1c(-c2cc3cc(C)cc(OC)c3s2)c2c(N)ncnn2c1CN1CCNCC1 [Example 43, 6-[(Diethylamino)methyl]-5-(7-methoxy-5-methyl-1-benzothiophen-2-yl)-7-(piperazin-1-ylmethyl)pyrrolo[2,1-f][1,2,4]triazin-4-amine trihydrochloride]
IC50 (FGFR-3): 32.4 nM

COc1cc(C)cc2cc(-c3c(CNCC(=O)O)c(CN4CCNCC4)n4ncnc(N)c34)sc12 [Example 48, N-{[4-Amino-5-(7-methoxy-5-methyl-1-benzothiophen-2-yl)-7-(piperazin-1-ylmethyl)pyrrolo[2,1-f]-[1,2,4]triazin-6-yl]methyl}glycine trihydrochloride]
IC50 (FGFR-1): 12.8 nM
